Target: human σ1 receptor (Homo sapiens (Human), UniProt Q99720)
Assay: Human σ1 receptor radioligand assay ([3H](+)-pentazocine, transfected HEK-293 membranes)
Details: binding to the σ1 receptor expressed as Ki, [3H](+)-pentazocine 5 nM
Method: Human σ1 Receptor Radioligand Assay
To investigate binding properties of test compounds to human σ1 receptor, transfected HEK-293 membranes and [^3H](+)-pentazocine (Perkin Elmer, NET-1056), as the radioligand, were used. The assay was carried out with 7 μg of membrane suspension, 5 nM of [^3H](+)-pentazocine in either absence or presence of either buffer or 10 μM Haloperidol for total and non-specific binding, respectively. Binding buffer contained Tris-HCl 50 mM at pH 8. Plates were incubated at 37° C. for 120 minutes. After the incubation period, the reaction mix was then transferred to MultiScreen HTS, FC plates (Millipore), filtered and plates were washed 3 times with ice-cold 10 mM Tris-HCL (pH 7.4). Filters were dried and counted at approximately 40% efficiency in a MicroBeta scintillation counter (Perkin-Elmer) using EcoScint liquid scintillation cocktail

Amino acid sequences for entries named in this document (tags omitted).
UniProt Q99720, whole entry: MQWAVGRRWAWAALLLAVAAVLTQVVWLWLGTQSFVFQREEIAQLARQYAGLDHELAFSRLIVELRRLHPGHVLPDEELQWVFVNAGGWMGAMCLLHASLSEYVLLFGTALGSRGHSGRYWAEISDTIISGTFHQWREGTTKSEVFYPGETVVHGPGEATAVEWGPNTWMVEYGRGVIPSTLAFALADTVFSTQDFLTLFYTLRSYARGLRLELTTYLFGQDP

CC(=O)N1Cc2ccccc2CC12CCN(CCc1ccccc1)CC2 [Example 5, 1-[1′-(2-Phenylethyl)-1H-spiro[isoquinoline-3,4′-piperidine]-2(4H)-yl]ethanone]
Ki: < 500 nM

From patent US10072008B2, “Spiro-isoquinoline-3,4′-piperidine compounds having activity against pain” (LABORATORIOS DEL DR. ESTEVE S.A., priority 2015, dated 2018)
